Values of other authors, collected in patent US9872875B2, “Component and method for treating viral disease” (Institut Pasteur of Shanghai, Chinese Academy of Sciences, priority 2012, dated 2018).

Target: T1, P2X4 receptor (Homo sapiens, UniProt Q99571)
T1 sequence (Q99571 1-388): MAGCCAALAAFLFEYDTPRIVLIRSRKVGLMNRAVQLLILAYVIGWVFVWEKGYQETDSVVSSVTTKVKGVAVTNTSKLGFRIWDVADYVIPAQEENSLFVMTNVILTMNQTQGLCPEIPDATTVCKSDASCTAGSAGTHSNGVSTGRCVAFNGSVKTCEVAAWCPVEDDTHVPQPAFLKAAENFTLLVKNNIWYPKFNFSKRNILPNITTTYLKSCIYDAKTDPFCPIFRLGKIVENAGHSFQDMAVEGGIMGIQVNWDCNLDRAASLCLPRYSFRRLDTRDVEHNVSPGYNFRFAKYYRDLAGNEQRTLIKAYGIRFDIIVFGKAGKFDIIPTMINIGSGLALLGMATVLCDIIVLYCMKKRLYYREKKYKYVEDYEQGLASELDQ
Conditions: Table 8, antagonists; cited from earlier work

trinitrophenol-ATP [TNP-ATP]
P2X receptors 4: + (+: inhibitory concentration >300 nM)
